According to PMC3830930 (Clinical pharmacology and therapeutics, 2011):

System: UDP-glucuronosyltransferases (UGTs) in pooled HLMs
Experiment: Glucuronidation of hydroxymidazolams in HLMs
Format: in vitro ADME, human

## O=C(O)Cc1ccccc1Nc1c(Cl)cccc1Cl [diclofenac]
  effect on glucuronide formation from 1’-OH-MDZ or 4-OH-MDZ: decreased glucuronide formation significantly
